The values below come from ChEMBL document CHEMBL6103626, “Structure-Based Design of New LSD1/EGFRL858R/T790M Dual Inhibitors for Treating EGFR Mutant NSCLC Cancers” (J Med Chem, 2025).

The assay in a line: Selectivity index, ratio of IC50 for inhibition of wild-type EGFR (unknown origin) using Glu/Tyr as substrate to IC50 for inhibition of EGFR L858R/T790M mutant (unknown origin) using Glu/Tyr as substrate. Conditions: tested as the 2H-labelled form.

SMILES strings stand for the structures.

`C=CC(=O)Nc1cc(Nc2nccc(-c3cn(C)c4ccccc34)n2)c(OC)cc1N1CCC(C)(N)CC1`: the Ratio IC50 was determined as 116.
